Laboratory results: patent US9968633B2, “Stimuli responsive compositions for iron chelation” (WISCONSIN ALUMNI RESEARCH FOUNDATION, priority 2014, dated 2018)

System: iron-overloaded J774A.1 cells
Procedure: Mouse macrophage/monocyte cell line, J774A.1, was purchased from American Type Culture Collection (ATCC). Cells were seeded in 96-well plates at a density of 3,000 cells/well, cultured at 37° C., 5% CO2 with DMEM complete medium (supplemented with 10% (v/v) heat-inactivated FBS, 100 I.U./mL penicillin and 100 μg/mL streptomycin), and allowed to settle for 24 h. Cells were then treated with DFO or oxNG-DFO at equivalent DFO concentrations of 1 mM prepared by 1:3 serial dilutions.
Cell viability was measured with the metabolism-based resazurin assay. Briefly, the substrate resazurin was dissolved in cell culture medium at a concentration of 44 μM, added to each well (100 μl) and incubated at 37° C. for 4 h. The fluorescence was measured with excitation at 560 nm and emission at 590 nm, on a SpectraMax Gemini EM microplate reader. Readings from the wells without cells were used as Eblank, and the readings from control cells without treatment (Econtrol) represented 100% cell viability. The viability of treated cells at different concentrations can be calculated by the following equation: […]
Similarly, cytotoxicity was also evaluated in iron-overloaded J774A.1 cells as described above. […]

Ferric ammonium citrate [FAC]
Cells viable after FAC incubation: > 80%
